From PubChem BioAssay AID686940 (The Scripps Research Institute Molecular Screening Center, 2013) come the findings set out here.

The chains behind the UniProt entries cited, without tags or fusion partners.
UniProt P24468, whole entry: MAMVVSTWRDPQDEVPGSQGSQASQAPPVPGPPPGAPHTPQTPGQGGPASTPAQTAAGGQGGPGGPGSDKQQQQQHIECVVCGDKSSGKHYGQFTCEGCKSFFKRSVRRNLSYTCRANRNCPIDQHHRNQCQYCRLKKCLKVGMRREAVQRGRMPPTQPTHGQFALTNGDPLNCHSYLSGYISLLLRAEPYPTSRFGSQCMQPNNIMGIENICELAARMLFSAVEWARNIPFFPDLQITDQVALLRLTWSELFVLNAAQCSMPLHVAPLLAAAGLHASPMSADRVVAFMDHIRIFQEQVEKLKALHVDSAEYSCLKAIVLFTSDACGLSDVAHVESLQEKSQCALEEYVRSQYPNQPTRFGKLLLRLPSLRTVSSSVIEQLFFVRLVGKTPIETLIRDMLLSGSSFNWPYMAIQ

The structures appear in SMILES notation. This is a selection; strong and weak results do not stand in their true shares. The source made the active and inactive calls.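 Rule for the calls: active = inhibition above a per-plate cutoff, mean inhibition of test wells between control levels plus 3 SD (cut at about 38% in these data); inactive = the rest.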

For orientation: inhibition means the relative decrease from the control value, in per cent.

The target in this test is COUP transcription factor 2 (Homo sapiens) (UniProt P24468). Kind of test: COUP-TFII reporter suppression in human cells – cell-based, luciferase reporter, HEK293T, luminescence, primary screen (AID 686940).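 Note: cells cotransfected with COUP-TFII expression vector driving the NGFI-A reporter; 0% = median of COUP-TF2 test wells and 100% = reporter-only cells.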 As to conditions: HEK293T NGFI-A luciferase reporter, at 8.6 µM, active compounds read high. On the technique in general: In a reporter assay the amount or activity of a reporter protein is the signal.
With `CCOP(C)(=S)SCC(=O)NC(C)C(=O)O` (stereo not given), the inhibition is inactive: 3.16%.
Under `O=[N+]([O-])c1cc([N+](=O)[O-])c(O)c([N+](=O)[O-])c1.c1ccc(Oc2ccncc2)cc1` stands inactive: -17.8%; under `CCOC(=O)c1ccc(NP(C)(=O)Oc2ccc(OC)cc2)cc1` (stereo not given), inactive: 3.56%.
On to `Cc1cc(C)cc(OP(C)(=O)Nc2ccc(SC(F)(F)F)cc2)c1` (stereo not given), for which the inhibition is inactive: -8.3%.
In the case of `CP(=O)(NC(=O)Nc1ccccc1)Oc1ccccc1` (stereo not given), the inhibition was inactive: -5.01%.
The same measure for `CCc1ccc(OP(C)(=O)N2CCN(c3ccc([N+](=O)[O-])cc3)CC2)cc1` (stereo not given): inactive: 6.29%.
Under `CP(=O)(Oc1ccccc1)OC(c1ccccc1)C(F)(F)F` (stereo not given) stands inactive: 20.9%; under `CP(=O)(Nc1ccc(SC(F)(F)F)cc1)Oc1ccc(Cl)cc1` (stereo not given), inactive: 20.8%; under `Cc1cccc(C)c1OP(C)(=O)Nc1ccc(SC(F)(F)F)cc1` (stereo not given), inactive: -20.3%.
The same measure for `COc1ccccc1-c1ccccn1.O=[N+]([O-])c1cc([N+](=O)[O-])c(O)c([N+](=O)[O-])c1`: inactive: -0.37%; for `CCN(CC)CCCOC(=O)C(O)(c1ccccc1)c1ccccc1`: inactive: -11.6%.
Consider `COc1ccc(OP(C)(=O)Nc2cccc(F)c2)cc1` (stereo not given), for which the inhibition is inactive: 2.25%.
Under `COc1ccccc1OP(C)(=O)Nc1cc(Cl)ccc1C` (stereo not given) stands inactive: -11.2%.
Under `Cc1cc(C)cc(OP(C)(N)=O)c1` (stereo not given) stands inactive: -9.73%; under `CCOC(=O)c1ccc(NP(C)(=O)Oc2ccccc2)cc1` (stereo not given), inactive: 0.12%.
The same measure for `Cc1ccc(NP(C)(=O)Oc2ccccc2)c(C)c1` (stereo not given): inactive: 0.6%; for `COc1ccccc1OP(C)(=O)Nc1ccc(C)cc1` (stereo not given): inactive: -17.4%.
Take `Cc1cccc(C)c1OP(C)(N)=O` (stereo not given): the inhibition is inactive: 11.9%.
Under `CC(C)(C)c1ccc(OP(C)(=O)Nc2ccc(SC(F)(F)F)cc2)cc1` (stereo not given) stands inactive: -3.3%; under `O=[N+]([O-])c1ccc2c(c1)C=Nc1ccccc1O2`, inactive: -7.49%.
The same measure for `O=[N+]([O-])c1cc([N+](=O)[O-])c(Nc2cccnc2)c([N+](=O)[O-])c1`: inactive: 11.1%.
Under `CC1=NCCc2c1[nH]c1ccccc21.O=[N+]([O-])c1cc([N+](=O)[O-])c(O)c([N+](=O)[O-])c1` stands inactive: -7.27%; under `O=C(O)c1cccc(Nc2c([N+](=O)[O-])cc([N+](=O)[O-])cc2[N+](=O)[O-])c1`, inactive: -5.29%; under `Cc1cc(C)cc(OP(C)(=O)Nc2ccccn2)c1` (stereo not given), inactive: 5.92%.
Take `CP(=O)(Nc1cccc(Br)c1)Oc1ccccc1` (stereo not given): the inhibition is inactive: 7.54%.
The same measure for `Cc1ccc(C)c(NP(C)(=O)Oc2ccccc2)c1` (stereo not given): inactive: 20%; for `Cc1cc(C)cc(OP(C)(=O)Nc2ccc(C)cc2C)c1` (stereo not given): inactive: -1.13%.
On to `CCOC(=O)c1ccc(NP(C)(=O)Oc2cc(C)cc(C)c2)cc1` (stereo not given), for which the inhibition is inactive: 3.42%.
On to `COc1ccccc1OP(C)(=O)Nc1cccc(Br)c1` (stereo not given), for which the inhibition was inactive: 9.22%.
The same measure for `Cc1nc2ccc3ccccc3c2s1.O=[N+]([O-])c1cc([N+](=O)[O-])c(O)c([N+](=O)[O-])c1`: inactive: 1%; for `O=[N+]([O-])c1cc([N+](=O)[O-])c(-c2cnn(-c3ccccc3)c2)c([N+](=O)[O-])c1`: inactive: 1.39%.
Under `CN(Cc1cccnc1)C(=O)COc1ccc(Cl)c(Cl)c1.O=[N+]([O-])c1cc([N+](=O)[O-])c(O)c([N+](=O)[O-])c1` stands inactive: -13.5%; under `O=[N+]([O-])c1cc([N+](=O)[O-])c(-n2nnc3ccccc32)c([N+](=O)[O-])c1`, inactive: 1.99%; under `CCCOc1ccc(NP(C)(=O)Oc2ccc(Cl)cc2)cc1` (stereo not given), inactive: 0.06%.
The same measure for `CP(=O)(Nc1ccc(SC(F)(F)F)cc1)Oc1ccccc1` (stereo not given): inactive: 7.81%; for `COc1ccc(-c2ccccn2)cc1.O=[N+]([O-])c1cc([N+](=O)[O-])c(O)c([N+](=O)[O-])c1`: inactive: -3.34%; for `CN1CCCCC1COC(=O)C1(O)c2ccccc2CCc2ccccc21` (stereo not given): inactive: 9.77%.
For `COc1ccccc1OP(C)(=O)Nc1c(C)cccc1C` (stereo not given), the inhibition is inactive: -3.27%.
The same measure for `CCOC(=O)C(CC)C1=NC(C)(C)Cc2ccccc21.O=[N+]([O-])c1cc([N+](=O)[O-])c(O)c([N+](=O)[O-])c1` (stereo not given): inactive: 6.38%.
Turning to `O=[N+]([O-])c1cc([N+](=O)[O-])c(Nc2nnnn2CCO)c([N+](=O)[O-])c1`, the inhibition was inactive: -37.3%.
